According to PubChem BioAssay AID1385 (PCMD, 2008):
Only a part is listed here, and it is no random draw. Activity calls are given as the source filed them.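 The calls were made as follows: active = inhibition above 40% at the single screening dose; inactive = the rest.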

Amino acid sequences for entries named in this document (tags omitted).
UniProt Q06609, whole entry, looked up: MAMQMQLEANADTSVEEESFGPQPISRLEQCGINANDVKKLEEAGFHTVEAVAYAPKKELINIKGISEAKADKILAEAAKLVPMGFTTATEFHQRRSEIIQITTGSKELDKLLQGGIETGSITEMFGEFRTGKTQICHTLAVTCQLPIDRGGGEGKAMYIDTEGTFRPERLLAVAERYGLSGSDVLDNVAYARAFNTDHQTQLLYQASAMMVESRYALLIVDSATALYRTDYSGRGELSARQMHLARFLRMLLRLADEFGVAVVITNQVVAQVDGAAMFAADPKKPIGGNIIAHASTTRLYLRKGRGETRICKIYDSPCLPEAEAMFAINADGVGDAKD

Target: DNA repair protein RAD51 homolog 1 (Homo sapiens) (UniProt Q06609)
Experiment: human RAD51 strand exchange inhibitors, primary screen, biochemical, fluorescence (AID 1385);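 also: 0% = DMSO control wells and 100% = blanks with heterologous ssDNA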
Details: hRad51 DNA strand exchange, fluorescence dequenching; at 10 µM; hits give high values

| Compound | inhibition |
| --- | --- |
| Cc1cc(SC(NC=O)C(Cl)(Cl)Cl)ncn1 (stereo unspecified) | inactive: -4.57% |
| O=P(Nc1ccccn1)(c1cccc2ccccc12)c1cccc2ccccc12 | inactive: 8.9% |
| O=[N+]([O-])c1ccc(Nc2ccc(Oc3ccc([N+](=O)[O-])cc3[N+](=O)[O-])cc2)c([N+](=O)[O-])c1 | inactive: -7.79% |
| CCOC(=O)Nc1cccc([As](=O)(O)O)c1 | inactive: -4.8% |
| Cc1cc(SC(NC(=O)c2ccccc2)C(Cl)(Cl)Cl)nc(C(C)C)n1 (stereo unspecified) | inactive: -3.04% |
| CCOC(=O)Nc1ccc([As](=O)(O)O)c(O)c1 | inactive: 2.05% |
| CCC(C)N(CC(C)C)C(=S)SC(NC(C)=O)C(Cl)(Cl)Cl (stereo unspecified) | inactive: 2.56% |
| COP1(=S)c2c(C)nn(CCC#N)c2N=C(c2ccc(F)cc2)N1C (stereo unspecified) | inactive: 6.32% |
| COc1ccc(N/C(=N/P(=O)(N2CCOCC2)N2CCOCC2)N2CCOCC2)cc1 | inactive: 9.03% |
| COc1ccc2nc(NP(=O)(c3ccccc3)c3ccccc3)sc2c1 | inactive: 2.3% |
| COc1cc(I)ccc1[As](=O)(O)O | inactive: -2.37% |
| O=C(OC1CN2CCC1CC2)C12CC3CC(CC(C3)C1)C2 (stereo unspecified) | inactive: 3.03% |
| Cc1cc(=O)[nH]c(N[N+](=O)[O-])n1 | inactive: 1.29% |
| CC(C)NC(=O)NP(=O)(Oc1ccccc1)Oc1ccccc1 | inactive: -3.09% |
| CCN(CC)C(=S)SC(NC=O)C(Cl)(Cl)Cl (stereo unspecified) | inactive: 16.1% |
| O=[N+]([O-])c1cc([N+](=O)[O-])c(-c2ccn[nH]2)s1 | inactive: 19.3% |
| ClCCSc1nnc(-c2cccnc2)o1 | inactive: 2.32% |
| Cc1ccc(OP(=O)(Nc2ccc([N+](=O)[O-])cn2)Oc2ccc(C)cc2)cc1 | inactive: -2.14% |
| Cc1ccc2nc3c(c(C)c2c1)CC(C(Cl)Cl)S3 (stereo unspecified) | inactive: 6.22% |
| O=[As](O)(c1ccc(O)cc1)c1ccccc1O | inactive: -13.2% |
| C[As](=O)(O)c1cccc(C(=O)O)c1 | inactive: -19.5% |
| CN(C(=O)Cc1ccccc1)[C@@H]1CC[C@]2(CCCO2)C[C@H]1N1CCCC1 | inactive: 6.57% |
| CCOP1(=S)c2c(C)nn(CCC#N)c2N=C(c2ccc(F)cc2)N1C (stereo unspecified) | inactive: 0.19% |
| O=[N+]([O-])c1ccc2c(c1)nnn2O | inactive: -2.4% |

| Compound | inhibition |
| --- | --- |
| CN(C(=O)Cc1ccc(Cl)c(Cl)c1)[C@H]1CC[C@@]2(CCCO2)C[C@@H]1N1CCCC1 | inactive: -2.3% |
| NC(=O)Nc1ccc([As](=O)(O)O)cc1 | inactive: -5.12% |
| O=C(O)COc1ccc([As](=O)(O)O)cc1[N+](=O)[O-] | inactive: 12.5% |
| Nc1ccccc1[As](=O)(O)c1ccccc1 | inactive: 13.3% |
| CCOP1(=S)c2c(C)nn(CCC#N)c2N=C(c2ccccc2F)N1C (stereo unspecified) | inactive: -6.03% |
| O=P(Nc1nccs1)(Oc1ccccc1)Oc1ccccc1 | inactive: 22% |
| O=P(Nc1nccs1)(c1ccccc1)c1nc2ccccc2s1 (stereo unspecified) | inactive: -3.1% |
| CS(=O)(=O)c1cc([N+](=O)[O-])c2no[n+]([O-])c2c1 | inactive: -2.88% |
| COc1cc(C2NCCC3(OCCO3)C2(C)C)cc(OC)c1OC (stereo unspecified) | inactive: -5.76% |
| Nc1cccc2c([As](=O)(O)O)cccc12 | inactive: -26.5% |
| Cc1ccc(NCCc2c([N+](=O)[O-])cc([N+](=O)[O-])cc2[N+](=O)[O-])cc1 | inactive: 4.45% |
| CCCOP(=S)(Nc1nc(N)cc(=O)[nH]1)OCCC | inactive: 18.9% |
| Cc1cccc(OCC(=O)OC2CN3CCC2CC3)c1 (stereo unspecified) | inactive: -0.83% |
| O=[As](O)(c1cccc(O)c1)c1cccc(O)c1 | inactive: 11.8% |
| O=C(OC1CN2CCC1CC2)c1ccc(Cl)cc1 (stereo unspecified) | inactive: 2.58% |
| O=[As](O)(O)c1cccnc1 | inactive: 7.19% |
| COc1cc(C(=O)NCC2(N3CCOCC3)CCCCC2)cc(Cl)c1OC(C)C | inactive: -2.47% |
| CN(C(=O)Cc1ccc(Cl)c(Cl)c1)[C@@H]1CCCC[C@H]1N1CCCC1 | inactive: -6.95% |
| O=[As](O)(c1ccccc1Br)c1ccccc1Br | inactive: 12.3% |
| CC1(CBr)Cn2c(nc3ccccc3c2=O)S1 (stereo unspecified) | inactive: 0.88% |
| Clc1n[nH]nc1-c1nn[nH][15n]1 | inactive: -5.13% |
| CC(C)(C)C(=O)NC(Sc1ncccn1)C(Cl)(Cl)Cl (stereo unspecified) | inactive: 15.5% |
| O=P1(Nc2ccccn2)COc2ccccc2OC1 | inactive: -11.4% |
| CCOP(=O)(Nc1ccc(C)cn1)OCC | inactive: -2.48% |

| Compound | inhibition |
| --- | --- |
| CN(CCCl)Cc1cc(Cl)c(NC2=NCCN2)c(Cl)c1 | inactive: -1.93% |
| Nc1cccc([As](=O)(O)c2ccccc2)c1 | inactive: 6.39% |
| Cc1ccc(OCC(=O)OC2CN3CCC2CC3)cc1 (stereo unspecified) | inactive: -2.84% |
| O=P1(Nc2ccc(Br)cn2)COc2ccccc2OC1 | inactive: 7.04% |
| O=P1(Nc2ncccn2)COc2ccccc2OC1 | inactive: 2.85% |
| O=C(/C=C/c1ccccc1)OC1CN2CCC1CC2 (stereo unspecified) | inactive: -6.31% |
| Cc1nn(-c2ccccc2)c2c1P(=O)(N1CCOCC1)N(C)C(c1ccccc1)=N2 (stereo unspecified) | inactive: -8.6% |
| CC1CCC(C(C)C)C(OP(=O)(Nc2ccccn2)c2ccccc2)C1 (stereo unspecified) | inactive: -5.55% |
| O=C(OC1CN2CCC1CC2)c1cccc(Cl)c1 (stereo unspecified) | inactive: 1.61% |
| Nc1ccc([As](=O)(O)c2ccc([N+](=O)[O-])cc2)cc1 | inactive: -5.22% |
| O=[As](O)(c1ccccc1)c1ccc(O)cc1 | inactive: 8.2% |
| O=[N+]([O-])c1ncn(CCn2cnc([N+](=O)[O-])n2)n1 | inactive: 1.66% |
| O=P(Nc1nc2ccccc2s1)(c1ccccc1)c1ccccc1 | inactive: 21.5% |
| C[C@H]1OP(=O)(Oc2ccccc2)[C@H](O)[C@H](O)[C@H]1N=[N+]=[N-] (stereo partly specified) | inactive: 10.1% |
| O=P(Nc1ccccn1)(c1ccc(Br)cc1)c1ccc(Br)cc1 | inactive: 10.4% |
| c1nnnn1CCn1cnnn1 | inactive: -20% |
| O=P(Nc1nccs1)(c1ccccc1)c1ccccc1 | inactive: -0.42% |
| CC(C)C(=O)NC(Sc1ccccc1)C(Cl)(Cl)Cl (stereo unspecified) | inactive: 12.5% |
| CC(=O)Nc1ccc([As](=O)(O)O)c(O)c1 | inactive: 21% |
| CC(=O)Nc1ccc(Oc2c([N+](=O)[O-])cc([N+](=O)[O-])cc2[N+](=O)[O-])cc1 | inactive: -3.81% |
| C[C@H]1OP(=O)(Oc2ccccc2)C[C@@H]2O[C@@H]21 (stereo partly specified) | inactive: 6.7% |
| C[C@@H]1C=CCP(=O)(Oc2ccccc2)O1 (stereo partly specified) | inactive: -1.05% |
| CC(C)(C)C(=O)NC(Sc1ccccc1)C(Cl)(Cl)Cl (stereo unspecified) | inactive: 20.5% |
| O=P1(Nc2nc3ccc(Cl)cc3s2)COc2ccccc2O1 (stereo unspecified) | inactive: -4.62% |

| Compound | inhibition |
| --- | --- |
| CCOc1ccc(C2=NCC(CBr)S2)cc1 (stereo unspecified) | inactive: -36.7% |
| Cc1ccccc1OP(=O)(Nc1ccccn1)Oc1ccccc1C | inactive: 3.39% |
| O=c1c2cc([N+](=O)[O-])ccc2[nH]c2c([N+](=O)[O-])cc([N+](=O)[O-])cc12 | inactive: -24.9% |
| CCC(=O)N1C2C3N(C(=O)CC)C1C1N(C(=O)CC)C(C(N1C(=O)CC)N3C(=O)CC)N2C(=O)CC | inactive: -9.58% |
| COC(=O)c1cc2c(s1)N=C(c1ccccc1)N(C)P2(=O)N1CCOCC1 (stereo unspecified) | inactive: 17% |
| Cc1ccc(OP(=O)(Nc2ccccn2)Oc2ccc(C)cc2)cc1 | inactive: -0.59% |
| c1ccc(-c2nn[nH]n2)c(-c2nn[nH]n2)c1 | inactive: 1.52% |
| CCOC(=O)NC(Sc1ccccc1)C(Cl)(Cl)Cl (stereo unspecified) | inactive: -12.2% |
| Cc1ccc(NP(=O)(Oc2cccc(C)c2)Oc2cccc(C)c2)nc1 | inactive: -16.9% |
| O=C(NC1CCS(=O)(=O)C1)NP(=S)(Oc1ccccc1)Oc1ccccc1 (stereo unspecified) | inactive: -2.78% |
| CCNC(=S)/N=C(\N)N[N+](=O)[O-] | inactive: 15.2% |
| Nc1cccc2ccc([As](=O)(O)O)cc12 | inactive: -4.57% |
| Cc1cc(SC(NC(=O)c2ccc(F)cc2)C(Cl)(Cl)Cl)ncn1 (stereo unspecified) | inactive: -5.02% |
| CCOP(=O)(Nc1ccccc1)OCC | inactive: -5.95% |
| CN(C(=O)Cc1ccc(Cl)c(Cl)c1)[C@H]1CCCC[C@@H]1N1CCCC1 | inactive: -2.39% |
| O=P(Nc1nc2ccc(Cl)cc2s1)(c1ccccc1)c1ccccc1 | inactive: 14.3% |
| CC(=O)Nc1ccc([As](=O)(O)O)cc1 | inactive: 8.7% |
| O=C(O)c1ccccc1[As](=O)(O)O | inactive: -18% |
| O=C(NC(Sc1ccncn1)C(Cl)(Cl)Cl)c1ccccc1 (stereo unspecified) | inactive: 7.82% |
| Cc1c2non([O-])c-2c(C)[n+](=O)[n+]1[O-] | inactive: -2.88% |
| Nc1cc(N)c2nonc2c1[N+](=O)[O-] | inactive: 6.26% |
| CC(C)CC(=O)NC(Sc1ccc(Cl)cc1)C(Cl)(Cl)Cl (stereo unspecified) | inactive: 3.31% |
| CN1CCCC(OC(=O)C(c2ccccc2)c2ccccc2)C1 (stereo unspecified) | inactive: -8.57% |
| COc1ccccc1OP(=O)(Nc1ccc(C)cn1)Oc1ccccc1OC | inactive: -0.1% |

| Compound | inhibition |
| --- | --- |
| Cc1ccc(OP(=O)(Nc2nccs2)Oc2ccc(C)cc2)cc1 | inactive: -1.78% |
| Cc1ccc(N/C(=N/P(=O)(N2CCOCC2)N2CCOCC2)N2CCOCC2)cc1 | inactive: -5.38% |
| NC(=O)c1cc([N+](=O)[O-])cc([N+](=O)[O-])c1N | inactive: -0.46% |
| CC1CCN(C(=O)Oc2c(Cl)cc(Cl)c3cccnc23)CC1 | inactive: 2.45% |
| CC(C)=N/N=C(\N)N[N+](=O)[O-] | inactive: -1.85% |
| CN(C)C(=O)OCCc1n(C)cc[n+]1C | inactive: -1.07% |
| CCN(/C(=N/P(=O)(N1CCOCC1)N1CCOCC1)N1CCOCC1)c1ccc(OC)cc1 | inactive: -217% |
| Nc1ccc([As](=O)(O)c2ccc(N)cc2)cc1 | inactive: 13.4% |
| C[N+]1=C2C=CC=CC=C2SC12C([N+](=O)[O-])=CC([N+](=O)[O-])=C[C-]2[N+](=O)[O-] (stereo unspecified) | inactive: 17% |
| Cc1ccc(NP(=O)(Oc2ccccc2)Oc2ccccc2)nc1 | inactive: -1.24% |
| O=[N+]([O-])c1cc([N+](=O)[O-])c(CCNc2ccccc2)c([N+](=O)[O-])c1 | inactive: 14.9% |
| CCc1nc2c(n1)c1c(non1O)c1c2no[n+]1[O-] | inactive: 2.98% |
| CC(=O)N1C2C3N(C(C)=O)C1C1N(C(C)=O)C(C(N1C(C)=O)N3C(C)=O)N2C(C)=O | inactive: -0.28% |
| O=[N+]([O-])c1cccc2n[nH]nc12 | inactive: -6.92% |
| COc1ccc(C2=NCC(CBr)S2)cc1 (stereo unspecified) | inactive: 5.17% |
| O=C(O)CNc1ccc([As](=O)(O)O)cc1 | inactive: 10.2% |
| O=[N+]([O-])c1cccc(NC2=NCC(CBr)S2)c1 (stereo unspecified) | inactive: -6.87% |
| O=[N+]([O-])c1ncn(CCn2ncnc2[N+](=O)[O-])n1 | inactive: 1.95% |
| CC(C)(C)C(=O)NC(Sc1ccncn1)C(Cl)(Cl)Cl (stereo unspecified) | inactive: 16.6% |
| O=C(Nc1cc([As](=O)(O)O)ccc1O)c1ccccc1 | inactive: 11.2% |
